Experimental data from paper PMC4533228.

Molecular target: 26S proteasome purified from rabbit muscle (rabbit)
Assay: pull-down; competition: binding of 26S to resin-bound polyUb-E6AP at 4°C in the presence of increasing concentrations (up to 300 nM) of K48- or K11-Ub4; binding without Ub tetramers taken as 100%; bound 26S by LLVY-AMC cleavage; constant called approximate

- percent decrease of polyUb-E6AP binding to proteasomes at 300 nM: 60%
Substance: K48-linked tetraubiquitin (K48-Ub4) (from UniProt P0CG48 1-76)
